This note sets out measurements from patent US20090181369A1, “Methods for the Treatment of Disease” (priority 2005, published 2009).

As a reminder, the IC50 is the concentration at which inhibition is half-maximal.

The target in assay [1] is FTase, β subunit V242I (Homo sapiens, UniProt P49356, V242I).
Assay [2] deals with FTase, β subunit C95R (Homo sapiens, UniProt P49356, C95R). To be noted: read-out: molecular IC50, HDJ2 farnesylation.
Assay [3] addresses FTase, β subunit G241E (Homo sapiens, UniProt P49356, G241E). To be noted: read-out: molecular IC50, HDJ2 farnesylation.
In assay [4] the target is FTase, β subunit P152S (Homo sapiens, UniProt P49356, P152S).
Assay [5] concerns the target FTase, β subunit W106R (Homo sapiens, UniProt P49356, W106R).
The target in assay [6] is FTase, wild-type β subunit (Homo sapiens, UniProt P49356). To be noted: read-out: Molecular IC50, HDJ2 farnesylation, 48 hours.
Where [7] appears, read: read-out: Molecular IC50, HDJ2 farnesylation, 48 hours.
The mark [8] stands for this setting: read-out: Molecular IC50, HDJ2 farnesylation, 48 hours, listed as lonafarnib.

Read-outs that look alike come from different tables or passages of the source.

As for `NC(=O)N1CCC(CC(=O)N2CCC([C@H]3c4ncc(Br)cc4CCc4cc(Cl)cc(Br)c43)CC2)CC1` [Lonafarnib, (+)-4-[2-[4-(8-Chloro-3,10-dibromo-6,11-dihydro-5H-benzo[5,6]cyclohepta[1,2-b]-pyridin-11(R)-yl)-1-piperidinyl]-2-oxo-ethyl]-1-piperidinecarboxamide], the IC50 is 1300 nM in assay [1] (setting [7]); below 2500 nM in assay [1] (setting [8]); above 2500 nM in assay [2]; above 2500 nM in assay [3]; 1400 nM in assay [4] (setting [7]); below 2500 nM in assay [4] (setting [8]). For the same compound, the concentration for half-maximal inhibition (IC50) is above 10000 nM in assay [5] (setting [7]), above 2500 nM in assay [5] (setting [8]) and 800 nM in assay [6].
